In patent US5670479A, “α-ketoamide derivatives as inhibitors of thrombosis” (Corvas International, Inc., priority 1994, dated 1997):

System: Male Harlan Sprague Dawley rats
Assay: Venous stasis model in rats
Format: in vivo
Settings: rat, summary in words

## CCCC(CCC)C(=O)N[C@@H](CC(=O)O)C(=O)N1CCC[C@H]1C(=O)N[C@@H](CCCNC(=N)N)C(=O)C(=O)NCC(=O)NCC(=O)NCC(=O)NCC(=O)NCC(=O)N[C@@H](CC(N)=O)C(=O)NCC(=O)N[C@@H](CC(=O)O)C(=O)N[C@@H](Cc1ccccc1)C(=O)N[C@@H](CCC(=O)O)C(=O)N[C@@H](CCC(=O)O)C(=O)N[C@H](C(=O)N1CCC[C@H]1C(=O)N[C@@H](CCC(=O)O)C(=O)N[C@@H](Cc1ccc(O)cc1)C(=O)N[C@@H](CC(C)C)C(=O)O)[C@@H](C)CC
  effect on venous thrombus formation induced by stasis and thromboplastin: very efficacious in dose-dependently preventing venous thrombus formation
